This is a selection; strong and weak results do not stand in their true shares. Results filed as inconclusive are left out. Active and inactive are the calls of the source. The call rests on the fitted dose curve; in most records, active means well fitted inhibition curve with a large enough effect; inconclusive means small, poorly fitted or top-dose-only effect, or another doubt; inactive means no such curve, though single readings can be large or run the other way.
biological target: DNA polymerase eta (Homo sapiens) (UniProt Q9Y253); assay: qHTS for Inhibitors of Polymerase Eta: Confirmatory Assay for Cherry-picked Compounds; conditions: Pol eta primer extension, TAMRA/BHQ fluorescence, 10 min
Excerpt: The Y-family of DNA polymerases, such as the Polymerase Eta (Pol eta), are specifically involved in DNA repair. Pol eta copies undamaged DNA with a lower fidelity than other DNA-directed polymerases. However, it accurately replicates UV-damaged DNA. When thymine dimers are present, this polymerase inserts the complementary nucleotides in the newly synthesized DNA, thereby bypassing the lesion and suppressing the mutagenic effect of UV-induced DNA damage. […] Thus, while Pol eta's (and most likely iota's) normal function is to protect humans against the deleterious consequences of DNA damage, under certain conditions they can have deleterious effects on human health. As a consequence, small molecule inhibitors of Pol eta (identified from a high throughput replication assay) have potential therapeutic applications. A 1536-well format, fluorescence based, high-throughput screen (AID 588591) is developed in collaboration with the National Institute of Child Health & Human Development (NICHD) to screen for inhibitors of the Pol eta enzyme. This screen is used to validate the activity of the selected compounds from the primary assay against the human Pol eta. Inhibition is the desired outcome for this assay. NIH Chemical Genomics Center [NCGC] NIH Molecular Libraries Probe Centers Network [MLPCN] MLPCN Grant: MH090825 Assay Submitter (PI): Roger Woodgate, NICHD
Three microliters of reagents (buffer in column 3 and 4 as negative control while 10 nM Pol eta in columns 1, 2, and 5-48) were dispensed into a 1536-well black solid-bottom plate. Compounds (23 nL) were transferred via Kalypsys pin tool equipped with 1536-pin array. The plates were then incubated for 15 min at room temperature, and 1 uL of substrate was added to start the reaction for a final concentration of 50 nM. The substrate was made by the annealing of unlabeled oligodeoxynucleotide primer (59-[…]-39) and TAMRA-labeled reporter strand (59-[…]-6-TAMRA-39) to oligodeoxynucleotide template labeled with BHQ-2 (59-BHQ-2-[…]-39) described in detail at the Yamanaka et.al. (PLOS, 2012) reference paper. The assay plates were initially read after 0 min and again after 10 min of kinetic reaction using the PerkinElmer Viewlux reader equipped with 525 nm excitation and 598 nm emission filters.
Potency means the concentration at half of the fitted maximal effect.

The chains behind the UniProt entries cited, without tags or fusion partners. Where a name states a change or a piece, a line headed by the entry shows the natural chain unless it says otherwise.
UniProt Q9Y253: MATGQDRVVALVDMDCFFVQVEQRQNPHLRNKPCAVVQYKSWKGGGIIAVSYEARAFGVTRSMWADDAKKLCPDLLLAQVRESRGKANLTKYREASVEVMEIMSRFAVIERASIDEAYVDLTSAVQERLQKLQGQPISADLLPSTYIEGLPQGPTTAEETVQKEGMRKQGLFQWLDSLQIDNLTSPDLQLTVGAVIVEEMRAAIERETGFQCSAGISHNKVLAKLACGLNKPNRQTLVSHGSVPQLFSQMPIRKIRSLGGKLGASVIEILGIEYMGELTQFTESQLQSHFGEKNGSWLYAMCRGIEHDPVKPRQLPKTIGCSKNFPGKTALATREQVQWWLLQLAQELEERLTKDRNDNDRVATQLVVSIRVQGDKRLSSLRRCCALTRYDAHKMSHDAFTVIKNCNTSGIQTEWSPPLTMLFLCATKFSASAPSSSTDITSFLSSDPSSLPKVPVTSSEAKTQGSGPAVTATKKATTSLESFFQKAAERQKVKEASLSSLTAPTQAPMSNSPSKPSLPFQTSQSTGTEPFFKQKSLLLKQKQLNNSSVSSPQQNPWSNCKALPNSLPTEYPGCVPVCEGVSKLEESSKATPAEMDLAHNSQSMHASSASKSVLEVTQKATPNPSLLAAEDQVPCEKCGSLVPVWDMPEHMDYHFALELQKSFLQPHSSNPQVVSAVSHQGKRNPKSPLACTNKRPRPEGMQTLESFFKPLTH

SMILES | Potency
O=c1c2cc([N+](=O)[O-])ccc2[nH]c2c([N+](=O)[O-])cc([N+](=O)[O-])cc12 | active: 75.7 µM
Nc1cccc2ccc([As](=O)(O)O)cc12 | active: 47.8 µM
CCc1nc2c(n1)c1c(non1O)c1c2no[n+]1[O-] | active: 84.9 µM
Nc1cccc2c([As](=O)(O)O)cccc12 | active: 37.9 µM
N#Cc1c(-c2ccc(-c3no[n+]([O-])c3C#N)cc2)no[n+]1[O-] | active: 84.9 µM

Source: PubChem BioAssay AID720502 (National Center for Advancing Translational Sciences (NCATS), 2013)
